Data taken from US20100035866A1, “NOVEL SUBSTITUTED-1, 1-DIOXO-BENZO[1,2,4]THIADIAZIN-3ONES, PREPARATION METHOD THEREOF, AND PHARMACEUTICAL COMPOSITION CONTAINING THE SAME” (KOREA RESEARCH INSTITUTE OF CHEMICAL TECHNOLOGY, priority 2006, published 2010).

Amino acid sequences for entries named in this document (tags omitted).
UniProt P50406, whole entry: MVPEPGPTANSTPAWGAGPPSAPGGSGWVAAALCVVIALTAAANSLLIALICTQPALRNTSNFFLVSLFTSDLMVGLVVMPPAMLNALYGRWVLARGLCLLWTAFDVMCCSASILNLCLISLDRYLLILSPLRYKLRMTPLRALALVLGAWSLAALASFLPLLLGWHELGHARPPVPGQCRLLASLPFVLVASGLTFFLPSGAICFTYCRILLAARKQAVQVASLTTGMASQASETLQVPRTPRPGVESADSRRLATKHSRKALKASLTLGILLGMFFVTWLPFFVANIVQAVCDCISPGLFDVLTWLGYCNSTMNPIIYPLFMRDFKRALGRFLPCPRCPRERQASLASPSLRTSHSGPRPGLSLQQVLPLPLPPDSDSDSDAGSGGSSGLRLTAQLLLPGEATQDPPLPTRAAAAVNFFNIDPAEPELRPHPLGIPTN

Molecular target: 5-HT6 receptors (Homo sapiens, UniProt P50406)
Experiment: Adenylyl cyclase activity (cAMP accumulation) in HeLa cells transfected with human 5-HT6 receptor
Conditions: FIG. 1

5-HT-induced increase in cAMP level inhibited (in words): inhibited
SMILES: CSc1ccc2c(c1)C(N1CCN(C)CC1)Cc1ccccc1S2 (stereo not shown) [methiothepin, reference compound]
